Reference: patent US11835522B2, “Sensors for detecting and imaging of cancer metastasis” (Massachusetts Institute of Technology, priority 2019, dated 2023)

Test system: CRC lung metastases (MMP9-secreting MC26 cells)
Conditions: mouse, in vivo

For OC[C@H]1OC(O)[C@H]([18F])[C@@H](O)[C@@H]1O (stereo partly shown) [^18F-FDG, ^18F-2-deoxyfluoroglucose], the “heart accumulation / background signal in the chest” value was “strong accumulation in the heart”.
